# Test results: doi:10.1101/2023.12.06.570349v1 (biorxiv, 2023)
# Amino acid sequences for entries named in this document (tags omitted). Residues count along the entry.
# UniProt Q9Y5N1, 1-365 isoform Q9Y5N1-3: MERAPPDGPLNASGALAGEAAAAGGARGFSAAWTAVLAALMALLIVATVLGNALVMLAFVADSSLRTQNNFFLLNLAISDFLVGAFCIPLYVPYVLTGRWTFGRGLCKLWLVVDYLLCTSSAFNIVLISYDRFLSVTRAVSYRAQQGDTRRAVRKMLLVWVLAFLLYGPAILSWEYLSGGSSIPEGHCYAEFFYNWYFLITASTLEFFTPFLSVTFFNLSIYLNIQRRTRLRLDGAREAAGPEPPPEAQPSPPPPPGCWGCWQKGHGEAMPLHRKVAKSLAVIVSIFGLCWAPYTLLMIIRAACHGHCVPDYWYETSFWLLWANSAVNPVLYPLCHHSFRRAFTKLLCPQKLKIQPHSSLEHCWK
# UniProt Q9Y5N1, 1-415 isoform Q9Y5N1-7: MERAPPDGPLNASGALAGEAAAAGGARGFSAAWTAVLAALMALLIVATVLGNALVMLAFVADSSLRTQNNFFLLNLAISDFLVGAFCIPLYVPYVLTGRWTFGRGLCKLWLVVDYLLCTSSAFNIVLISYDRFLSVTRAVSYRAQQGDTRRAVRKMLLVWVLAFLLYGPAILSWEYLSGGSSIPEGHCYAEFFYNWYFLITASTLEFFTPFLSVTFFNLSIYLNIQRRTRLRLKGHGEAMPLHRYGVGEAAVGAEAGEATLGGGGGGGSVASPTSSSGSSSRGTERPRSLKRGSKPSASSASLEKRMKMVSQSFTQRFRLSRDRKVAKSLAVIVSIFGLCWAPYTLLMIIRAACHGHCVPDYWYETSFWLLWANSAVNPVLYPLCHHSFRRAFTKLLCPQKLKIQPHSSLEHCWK
# Assays:
# H3R-365 = H3R-365 (Homo sapiens, UniProt Q9Y5N1); experiment: biochemical
# H3R-373 = H3R-373 (Homo sapiens, UniProt Q9Y5N1, INS445KMKKKTCL)
# H3R-415 = H3R-415 (Homo sapiens, UniProt Q9Y5N1); experiment: cell-based; design: species or system HEK293-EPAC stably expressing H3R isoform
# H3R-413 = H3R-413 (Homo sapiens, UniProt Q9Y5N1, DEL274-305); experiment: biochemical
smiles,measurement,setting,value
"NC(=NCc1ccc(Cl)cc1)SCCCc1cnc[nH]1 [clobenpropit, N’-[(4-chlorophenyl)methyl]-1-[3-(3H-imidazol-4-yl)propylsulfanyl]methanimidamide]",Ki,H3R-365,1.26 nM
same,Ki,H3R-373,1 nM
same,EC50,H3R-415,0.2 nM
same,Ki,H3R-413,0.631 nM
